Test results taken from patent US12053470B2, “Pharmaceutical combination comprising an ALK inhibitor and a SHP2 inhibitor” (Novartis AG, priority 2017, dated 2024).

Tested on: Ceritinib resistant MGH049 cells
Assay: Cell colony formation assay with ceritinib resistant MGH049 cells;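 further: tested compounds are SHP2 inhibitors given alone, colonies fixed and crystal violet stained, DMSO reference taken as the mean of six readings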
Format: cell-based
Conditions: Homo sapiens, 168 h, read-out: Normalized Crystal Violet abs. (590 nm) DMSO
Procedure: The cell colony formation assay with ceritinib resistant MGH049 cells were used to assess the anti-proliferative effect of ceritinib in combination with SHP2 inhibitors of Table 1.
Ceritinib resistant MGH049 cells were plated into 12-well tissue culture plates (2×10^5 cells/well) in a total volume of 0.5 mL. After 24 hours, compounds were added to the plates. Cells were exposed for 7 days to either DMSO, ceritinib (0.5 μM), a compound of Table 1 (3 μM), or the combination of ceritinib (0.5 μM) and a compound of Table 1 (3 μM). At the end points of the assays, cells were fixed, stained with crystal violet, and photographed. The crystal violet staining was then extracted in 20% acetic acid and measured as absorbance at 590 nm in duplicates. The absorbance was normalized to the average of six readings in DMSO (without compound) which was set at 100.

Structure (SMILES) | activity at 3 µM
CC1(CN)CCN(c2cnc(-c3cccc(Cl)c3Cl)c(N)n2)CC1 [compound 3, 6-(4-(aminomethyl)-4-methylpiperidin-1-yl)-3-(2,3-dichlorophenyl)pyrazin-2-amine] | 90.2%
C[C@@H]1OCC2(CCN(c3nc4n[nH]c(-c5ccnc(NC6CC6)c5Cl)c4c(=O)n3C)CC2)[C@@H]1N [compound 42, 6-((3S,4S)-4-amino-3-methyl-2-oxa-8-azaspiro[4.5]decan-8-yl)-3-(3-chloro-2-(cyclopropylamino)pyridin-4-yl)-5-methyl-2,5-dihydro-4H-pyrazolo[3,4-d]pyrimidin-4-one] | 51.7%
CC1(CN)CCN(c2cnc(Sc3cccnc3C(F)(F)F)c(N)n2)CC1 [Compound No. 4, 6-(4-(aminomethyl)-4-methylpiperidin-1-yl)-3-((2-(trifluoromethyl)pyridin-3-yl)thio)pyrazin-2-amine] | 97.1%
Nc1nccc(Sc2cnc(N3CCC4(CCC[C@H]4N)CC3)cn2)c1Cl [compound 23, (R)-8-(5-((2-amino-3-chloropyridin-4-yl)thio)pyrazin-2-yl)-8-azaspiro[4.5]decan-1-amine] | 34.8%
